The pEC50 is the negative decadic logarithm of the EC50, by convention in mol/L. A higher pEC50 goes with a small EC50.

The chains behind the UniProt entries cited, without tags or fusion partners.
UniProt P08588, whole entry: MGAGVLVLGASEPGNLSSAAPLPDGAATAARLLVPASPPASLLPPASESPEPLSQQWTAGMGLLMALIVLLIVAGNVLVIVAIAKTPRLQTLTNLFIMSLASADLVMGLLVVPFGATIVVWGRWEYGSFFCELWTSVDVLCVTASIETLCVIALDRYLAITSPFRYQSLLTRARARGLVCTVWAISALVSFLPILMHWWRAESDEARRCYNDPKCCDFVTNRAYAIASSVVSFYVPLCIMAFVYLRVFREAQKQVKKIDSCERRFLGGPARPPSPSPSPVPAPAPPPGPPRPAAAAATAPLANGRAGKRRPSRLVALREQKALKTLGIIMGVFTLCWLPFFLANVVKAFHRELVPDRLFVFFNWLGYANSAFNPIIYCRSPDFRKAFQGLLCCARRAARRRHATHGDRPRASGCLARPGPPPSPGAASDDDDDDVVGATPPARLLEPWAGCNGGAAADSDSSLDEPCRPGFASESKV

The source of these data is publication doi:10.1101/2024.06.03.597093v3 (biorxiv, 2024).

pEC50: −log10 of the molar value.

For this assay, the target named is β1AR-NlucC (CRISPR) (Homo sapiens, UniProt P08588). The assay can be described thus: cell-based.

In turn, `CNC[C@H](O)c1ccc(O)c(O)c1` [adrenaline] showed a negative-log EC50 (pEC50) of 6.60.
